From patent US20230039677A1, “BICYCLIC PEPTIDE LIGANDS SPECIFIC FOR IL-17” (BicycleTx Limited, priority 2019, published 2023)

Target: T1, Human IL-17A (human, UniProt Q16552 24-155)
T1 construct: Used in solution at a fixed concentration (75 nM with tracer BCY13196); also called Interleukin-17; CTLA-8
T1 sequence (looked up): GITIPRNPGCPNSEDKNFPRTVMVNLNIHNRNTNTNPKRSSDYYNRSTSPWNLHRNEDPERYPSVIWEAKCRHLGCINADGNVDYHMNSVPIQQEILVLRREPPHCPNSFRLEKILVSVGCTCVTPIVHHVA
Assay: fluorescence polarization competition, 75 nM human IL-17A, 1 nM tracer BCY13196, mean of n=3
Experimental: Affinity determination by fluorescence polarization (FP) competition. Bicycles were screened to determine affinity (Ki) in a fluorescence polarisation assay where in competition with a bicycle labelled with fluorescein (referred to as tracer) with a known affinity for IL-17A. Peptides were diluted to an appropriate concentration in assay buffer (PBS+0.01% Tween20, adjusted to pH7.4 using NaOH (1M)) with a maximum of 1% DMSO, then serially diluted 1 in 2 into assay buffer. Into black 384-well low volume plates, 5 μL of diluted peptide was added to the plate followed by 10 μL of IL-17A at a fixed concentration (75 nM IL-17A for tracer BCY13196, 50 nM IL-17A for tracer BCY13351), then 10 μL tracer added to a final concentration of 1 nM. Measurements were conducted on a BMG PHERAstar FS equipped with an “FP 485 520 520” optic module which excites at 485 nm and detects parallel and perpendicular emission at 520 nm. The PHERAstar FS was set at 25° C. with 200 flashes per well and a positioning delay of 0.1 second, with each well measured at 5 to 10 minute intervals for 60 minutes. The gain used for measurements was determined at the point of experiment on a tracer alone well. […]
Selected peptide ligands of the invention were tested in the above mentioned IL-17A human fluorescence polarization (FP) competition assay and the results are shown in Table 1: […]

B1: BCY13057 (peptide)
peptide: ACPQDLELCTFLFGDCA
modifications: the three cysteine residues (Ci, Cii, Ciii) are covalently bound to the TATA scaffold (1,1',1''-(1,3,5-triazinane-1,3,5-triyl)triprop-2-en-1-one), forming two loops
notes: Synthetic bicyclic peptide cyclised on TATA; also called bicyclic peptide ligand specific for IL-17A
- Ki: 262 nM
